We go through 2 molecules from patent publication US10124022B2, “Compositions and methods for enhancing the effectiveness of systemic, HIPEC, IP, and related cancer treatments” (ChemoTherapeutics, LLC, priority 2010, dated 2018).

This assay has as its system HCT-116 cells. Kind of assay: MTS cell viability assay, drugs ± one-hour hyperthermia, cytotoxicity measured after three days (Studies 1-6).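 Note: Drug-treated HCT-116 cells held one hour at 42 °C (hyperthermia) or 37 °C, then cultured at 37 °C, viability read by MTS in triplicate wells.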 As to conditions: 20 μM Selenite, 150 μM Quercetin as named.

Consider `N.N.[Cl][Pt][Cl]` [Cisplatin, reference compound], for which the “% cell survival” value is, setting by setting: (Study 3, 2.5 μM Cisplatin, alone or with 1.25 mM Vitamin C, 37° C.) 95.2%; (Study 3, 2.5 μM Cisplatin, alone or with 1.25 mM Vitamin C, 42° C. 1 hr) 82.7%; (Study 3, 10 μM Cisplatin, alone or with 1.25 mM Vitamin C, 37° C.) 41.2%; (Study 3, 10 μM Cisplatin, alone or with 1.25 mM Vitamin C, 42° C. 1 hr) 29.9%.
With `O=c1c(O)c(-c2ccc(O)c(O)c2)oc2cc(O)cc(O)c12` [Quercetin], the “% cell survival” value (Study 3, no chemotherapeutic, 1.25 mM Vitamin C, 37° C.) was 128% and the “% cell survival” value (Study 3, no chemotherapeutic, 1.25 mM Vitamin C, 42° C. 1 hr) is 107%.
